Columns and labels:
[1] = target: T1, human GLP-1 R (Homo sapiens, UniProt P43220); test: cAMP induction in HEK293 cells expressing human GLP-1 R (AlphaScreen cAMP kit); type: cell-based; conditions: read-out: GLP1 R (EC50 in nM), Table 2b (most comprehensive data), average EC50, cAMP
T1 construct: expressed in transfected cells

Chains of the proteins cited; added tags and fusions are not shown. Residues count along the entry.
UniProt P43220, 24-463: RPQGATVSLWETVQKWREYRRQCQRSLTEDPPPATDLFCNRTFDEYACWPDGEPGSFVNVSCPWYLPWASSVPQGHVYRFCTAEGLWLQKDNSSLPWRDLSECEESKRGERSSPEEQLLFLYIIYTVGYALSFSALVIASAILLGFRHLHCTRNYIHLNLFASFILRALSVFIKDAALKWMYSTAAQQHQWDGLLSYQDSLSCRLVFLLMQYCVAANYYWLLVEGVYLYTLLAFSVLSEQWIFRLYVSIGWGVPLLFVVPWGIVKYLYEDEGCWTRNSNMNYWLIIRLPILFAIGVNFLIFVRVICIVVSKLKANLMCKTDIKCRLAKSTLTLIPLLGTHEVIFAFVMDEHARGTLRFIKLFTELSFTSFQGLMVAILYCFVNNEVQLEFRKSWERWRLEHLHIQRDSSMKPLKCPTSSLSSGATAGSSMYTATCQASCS
UniProt P01275, 53-81: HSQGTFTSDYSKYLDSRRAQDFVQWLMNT

[2] = target: T2, human GIP R (Homo sapiens, UniProt P48546); test: cAMP induction in HEK293 cells expressing human GIP R (AlphaScreen cAMP kit); type: cell-based; conditions: read-out: GIP R (EC50 in nM), Table 2b (most comprehensive data), average EC50, cAMP
T2 construct: expressed in transfected cells
T2 sequence (P48546 22-466): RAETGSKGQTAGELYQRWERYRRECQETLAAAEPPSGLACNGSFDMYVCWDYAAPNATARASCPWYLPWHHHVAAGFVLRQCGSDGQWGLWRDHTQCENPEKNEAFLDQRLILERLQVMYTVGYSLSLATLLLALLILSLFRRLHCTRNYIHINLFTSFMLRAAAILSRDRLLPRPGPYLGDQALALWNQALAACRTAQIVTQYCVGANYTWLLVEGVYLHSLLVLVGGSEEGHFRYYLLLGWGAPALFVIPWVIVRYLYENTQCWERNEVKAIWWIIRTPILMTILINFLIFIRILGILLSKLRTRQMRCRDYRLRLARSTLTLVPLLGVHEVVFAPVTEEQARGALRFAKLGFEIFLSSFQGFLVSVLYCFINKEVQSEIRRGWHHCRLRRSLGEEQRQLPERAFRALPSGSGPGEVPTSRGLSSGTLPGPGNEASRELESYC

[3] = target: T3, human GIP receptor (human, UniProt P48546 22-466); test: cell-based or functional assay
T3 sequence: T2 sequence (P48546 22-466)

EC50 [1] | EC50 [2] | EC50 (cAMP induction) [3] | Substance
0.01 nM | 0.415 nM |  | glucagon [reference compound]
 |  | 0.415 nM | glucagon (from UniProt P01275 53-81) (peptide)

Source: patent US10131702B2, “Glucagon-GLP-1-GIP triple agonist compounds” (priority 2013, dated 2018)
